From patent US11559497B2, “Transdermal drug delivery system for ketamine” (Guangzhou Dazhou Biomedicine Ltd., priority 2020, dated 2023)

How the values were obtained:
[1] = Phase 1 clinical study: plasma pharmacokinetics after ketamine transdermal patch
[2] = Prediction of delivered dose and human PK from in vitro permeability and PK linearity; conditions: predicted

Q: For `CNC1(c2ccccc2Cl)CCCCC1=O` (racemic) [Ketamine, ketamine], which “normalized AUC ratio Stage 3/Stage 1” value ([1]; Mean) is on record?
A: 1.16

Q: What about the “normalized AUC ratio Stage 3/Stage 1” value ([1]; Median) of the same compound?
A: 1.23

Q: What about the “Plasma AUC normalized by patch area and duration, AUC/(cm2 · d)” value (shortened to “Plasma AUC normalized”) ([1]; Stage 1, Mean) of the same compound?
A: 3.62 (ng/mL · h)/(cm2 · d)

Q: And the “Plasma AUC normalized” value ([1]; Stage 1, Median)?
A: 3.73 (ng/mL · h)/(cm2 · d)

Q: What about the “Plasma AUC normalized” value ([1]; Stage 3, Mean) of the same compound?
A: 4.17 (ng/mL · h)/(cm2 · d)

Q: What about the “Plasma AUC normalized” value ([1]; Stage 3, Median) of the same compound?
A: 3.78 (ng/mL · h)/(cm2 · d)

Q: What about the “Cmax resulting from about 100 mg dose by ketamine transdermal delivery device” value [2] of the same compound?
A: around 30 ng/mL
